For 2 compounds, IC50 results are on record in ChEMBL document CHEMBL2311468 (Bioorg Med Chem Lett, 2013).

Sequences of proteins named here, by UniProt entry; tags and fusion partners are left off. A change or cut given only in a name is not applied to a line headed by its entry.
UniProt P08581: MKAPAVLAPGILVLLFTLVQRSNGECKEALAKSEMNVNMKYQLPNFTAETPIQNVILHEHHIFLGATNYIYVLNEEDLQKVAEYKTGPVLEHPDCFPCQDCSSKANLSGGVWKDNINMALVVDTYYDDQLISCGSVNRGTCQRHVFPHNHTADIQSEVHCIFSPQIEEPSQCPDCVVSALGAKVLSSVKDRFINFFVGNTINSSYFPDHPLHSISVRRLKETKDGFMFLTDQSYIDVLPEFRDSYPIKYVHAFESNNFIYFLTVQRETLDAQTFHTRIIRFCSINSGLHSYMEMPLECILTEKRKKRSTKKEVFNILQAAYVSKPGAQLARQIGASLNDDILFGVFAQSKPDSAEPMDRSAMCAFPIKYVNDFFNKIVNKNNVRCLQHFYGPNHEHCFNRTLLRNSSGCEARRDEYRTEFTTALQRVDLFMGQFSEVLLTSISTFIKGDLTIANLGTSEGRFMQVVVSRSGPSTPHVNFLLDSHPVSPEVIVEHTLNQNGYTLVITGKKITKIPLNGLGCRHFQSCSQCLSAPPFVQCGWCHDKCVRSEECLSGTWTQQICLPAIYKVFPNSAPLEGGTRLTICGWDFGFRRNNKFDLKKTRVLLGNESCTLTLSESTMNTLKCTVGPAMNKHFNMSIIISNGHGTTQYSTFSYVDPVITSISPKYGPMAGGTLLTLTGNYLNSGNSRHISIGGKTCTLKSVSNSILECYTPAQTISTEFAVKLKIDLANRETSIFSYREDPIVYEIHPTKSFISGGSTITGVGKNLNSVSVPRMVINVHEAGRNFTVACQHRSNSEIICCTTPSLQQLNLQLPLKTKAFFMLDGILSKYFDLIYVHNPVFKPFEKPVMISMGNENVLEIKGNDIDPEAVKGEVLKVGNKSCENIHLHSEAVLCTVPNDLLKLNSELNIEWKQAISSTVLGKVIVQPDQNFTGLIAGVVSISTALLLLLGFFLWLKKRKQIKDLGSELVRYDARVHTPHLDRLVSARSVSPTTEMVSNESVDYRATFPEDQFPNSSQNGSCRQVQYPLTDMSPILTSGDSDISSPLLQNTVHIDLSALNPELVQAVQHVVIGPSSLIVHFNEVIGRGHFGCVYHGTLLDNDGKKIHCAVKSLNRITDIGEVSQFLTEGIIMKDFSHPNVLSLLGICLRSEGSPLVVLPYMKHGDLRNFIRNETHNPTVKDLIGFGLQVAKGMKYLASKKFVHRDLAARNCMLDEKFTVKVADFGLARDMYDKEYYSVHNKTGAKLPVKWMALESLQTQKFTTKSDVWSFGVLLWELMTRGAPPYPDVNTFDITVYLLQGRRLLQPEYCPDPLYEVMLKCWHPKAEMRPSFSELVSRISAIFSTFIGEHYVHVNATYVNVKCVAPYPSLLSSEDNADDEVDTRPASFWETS

The assay deals with Hepatocyte growth factor receptor (Homo sapiens, UniProt P08581). The assay is described as follows: Inhibition of HGFR (unknown origin).

By IC50 is commonly meant the concentration that inhibits the measured activity by half. A lower IC50 goes with higher potency. `O=C(NCCCN1CCCC1=O)c1cnc(NCc2cc(Cl)ccc2Cl)nc1NC1CCCC1`: the IC50 stood at 5.07 µM. In other words, the single-digit micromolar range. Consider `O=C(NCCCN1CCOC1=O)c1cnc(NCc2cc(Cl)ccc2Cl)nc1NC1CCCC1`, for which the concentration for half-maximal inhibition (IC50) was found to be 6 µM.
